Experimental data: paper PMC2292216 (The Journal of Experimental Medicine, 2008)

System: human platelets
Settings: pretreatment of platelets with 10 μM aspirin, arachidonic acid stimulation

SMILES: CC(=O)Oc1ccccc1C(=O)O [aspirin]
- effect on BLT2 agonistic activity of platelet lipid fractions 7 and 8: completely abolished BLT2 agonistic activity
